Entries after “also recorded” stand apart in the source; their conditions may differ.
Key:
NTSR1-ProLink = NTSR1-ProLink (Homo sapiens, UniProt P30989); experiment: β-arrestin2 recruitment (DiscoverX PathHunter), NTSR1-ProLink; format: cell-based
NTSR1 = target: T1, NTSR1 (Homo sapiens, UniProt P30989); experiment: Surface ELISA, monoexpressed HA-NTSR1; format: cell-based; details: 1 µM ligand, 30 min; relative to vehicle-treated cells
T1 construct: host or cells: HEK293T, transient

By UniProt entry, the sequences of proteins in these tests, tags left out. Where a name states a change or a piece, a line headed by the entry shows the natural chain unless it says otherwise.
UniProt P30989, whole entry: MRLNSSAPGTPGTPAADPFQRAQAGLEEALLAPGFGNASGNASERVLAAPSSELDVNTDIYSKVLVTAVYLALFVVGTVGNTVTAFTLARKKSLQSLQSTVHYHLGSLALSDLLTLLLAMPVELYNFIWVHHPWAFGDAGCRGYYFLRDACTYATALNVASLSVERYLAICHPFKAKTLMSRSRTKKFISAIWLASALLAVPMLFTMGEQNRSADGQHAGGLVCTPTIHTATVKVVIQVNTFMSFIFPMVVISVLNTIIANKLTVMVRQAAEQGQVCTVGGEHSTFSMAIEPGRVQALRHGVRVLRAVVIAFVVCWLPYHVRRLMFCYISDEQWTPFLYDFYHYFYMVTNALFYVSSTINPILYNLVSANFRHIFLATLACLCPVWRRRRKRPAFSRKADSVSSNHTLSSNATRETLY
UniProt P35462, whole entry: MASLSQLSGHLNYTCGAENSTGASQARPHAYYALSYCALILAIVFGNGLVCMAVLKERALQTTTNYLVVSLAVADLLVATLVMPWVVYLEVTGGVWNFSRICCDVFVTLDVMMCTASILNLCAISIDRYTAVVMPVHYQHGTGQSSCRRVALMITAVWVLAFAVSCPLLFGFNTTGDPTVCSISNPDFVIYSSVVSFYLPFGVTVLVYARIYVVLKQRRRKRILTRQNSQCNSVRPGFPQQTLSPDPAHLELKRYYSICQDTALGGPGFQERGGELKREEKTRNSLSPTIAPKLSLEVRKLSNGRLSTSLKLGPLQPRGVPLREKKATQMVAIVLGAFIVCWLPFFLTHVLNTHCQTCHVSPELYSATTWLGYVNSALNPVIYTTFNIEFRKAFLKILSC

D3R [1] = target: T2, D3R (Homo sapiens, UniProt P35462); experiment: biochemical
D3R [2] = target: T2, D3R; experiment: Surface ELISA, monoexpressed Flag-D3R; format: cell-based; design: host or cells: HEK293T, transient; details: 1 µM quinpirole, 1 µM NT(8-13) or 10 nM 1d, 30 min

CCCN1CCC[C@@H]2Cc3n[nH]cc3C[C@H]21 [quinpirole]
β-arrestin2 recruitment to NTSR1-ProLink (NTSR1-ProLink): no effect | surface expression of monoexpressed NTSR1 (NTSR1): 87 ± 6%

CC[C@H](C)[C@H](NC(=O)[C@H](Cc1ccc(O)cc1)NC(=O)[C@@H]1CCCN1C(=O)[C@H](CCCNC(=N)N)NC(=O)[C@H](CCCNC(=N)N)NC(=O)CCOCCOCCOCCOCCOCCOCCNC(=O)CCOCCOCCOCCOCCOCCOCCNC(=O)CCOCCOCCOCCOCCOCCOCCNC(=O)CCOCCOCCOCCOCCOCCOCCNC(=O)c1ccc(-c2ccc(-n3cc(CCCCN4CCN(c5ccccc5OC)CC4)nn3)cc2)cc1)C(=O)N[C@@H](CC(C)C)C(=O)O [2d]
Ki (D3R [1]): 7 nM

CCCN(CCCCc1cn(-c2ccc(-c3ccc(C(=O)NCCOCCOCCOCCOCCOCCOCCC(=O)NCCOCCOCCOCCOCCOCCOCCC(=O)NCCOCCOCCOCCOCCOCCOCCC(=O)NCCOCCOCCOCCOCCOCCOCCC(=O)N[C@@H](CCCNC(=N)N)C(=O)N[C@@H](CCCNC(=N)N)C(=O)N4CCC[C@H]4C(=O)N[C@@H](Cc4ccc(O)cc4)C(=O)N[C@H](C(=O)N[C@@H](CC(C)C)C(=O)O)[C@@H](C)CC)cc3)cc2)nn1)C1Cc2ccccc2C1 [1d]
Ki (D3R [1]): 0.85 ± 0.38 nM

CC[C@H](C)[C@H](NC(=O)[C@H](Cc1ccc(O)cc1)NC(=O)[C@@H]1CCCN1C(=O)[C@H](CCCNC(=N)N)NC(=O)[C@@H](N)CCCNC(=N)N)C(=O)N[C@@H](CC(C)C)C(=O)O [NT(8-13), reference compound]
surface expression of monoexpressed D3R (D3R [2]): unchanged; also recorded: did not lead to apparent changes in surface expression
